From patent US20010012631A1, “Plant clonal lines and plants having elevated secondary metabolite levels” (University of Massachusetts Medical Center, a Massachusetts …, priority 1997, published 2001)

Assays:
oregano line 0-1 [1] = conditions: ± SD; for RA: line 0-1, 30d culture on supplemented media (Proline 4 mM, A2C 50 μM, Ornithine 5 mM), mean of 4 extracts; for RA Levels: 30 days (Example 3)
oregano line 0-1 [2] = conditions: ± SD, mean of 4 extracts
[3] = line 0-1, 15d culture on supplemented media (Proline 4 mM, A2C 50 μM, Ornithine 5 mM)
[4] = line 0-1, 30d culture on supplemented media (Proline 4 mM, A2C 50 μM, Ornithine 5 mM)

SMILES	RA (oregano line 0-1 [1]) [mg/g FW]	Proline (oregano line 0-1 [2]; [3]) [μmol/g FW]	Proline (oregano line 0-1 [2]; [4]) [μmol/g FW]	RA Levels (oregano line 0-1 [1]; line 0-1, A2C 100 μM) [mg/g FW]	RA Levels (oregano line 0-1 [1]; line 0-1, A2C 200 μM) [mg/g FW]
O=C(O)[C@@H]1CCCN1 [Proline]	3.51 ± 0.34	62.15 ± 9.84	18.34 ± 7.40	–	–
O=C(O)C1CCN1 (centres unmarked) [A2C, azetidine-2-carboxylic acid]	4.28 ± 1.18	0.91 ± 0.33	0.41 ± 0.17	5.1 ± 0.4	5.4 ± 0.4

Read-outs that look alike come from different tables or passages of the source.
